Measurements published in patent US9856298B2 (priority 2011, dated 2018).

Assay: Serum stability / release of peptide in pure mouse serum (100%) (RP-HPLC, MALDI-MS)
Conditions: 6 h

Which “uncleaved peptide remaining after the indicated time (instead of half-life)” value does the source give for “tPEG^5000-GAR-VDKPPYLPRPRPPROIYNO-NH2 [tPEG^5000-GAR-Onc 72]” here?
The value was 86%.
